Test results from patent US20230270867A1, “CONJUGATE IN WHICH FL118 DRUG IS LINKED TO ACID-SENSITIVE LINKER, AND IMMUNOCONJUGATE USING SAME” (PINOTBIO, INC., priority 2020, published 2023).

Columns and labels:
[1] = tested on: JIMT-1 tumor cells; test: In vivo drug efficacy, JIMT-1 xenograft model (trastuzumab / Example 5); set-up: species or system mice; details: JIMT-1 model, 10 mg/kg I.V.
Procedure: (§1) All procedures related to animal handling, care, and treatment in this study were carried out in accordance with the guidelines approved by the Institutional Animal Care and Use Committee (IACUC) of Shanghai Model Organisms Center, Inc. according to the guidelines of the Association for Assessment and Accreditation of Laboratory Animal Care (AAALAC). Thirty 9 to 11 weeks old female mice weighing 16 to 18 g were accommodated in cages (300 mm×180 mm×150 mm), 3 to 5 mice in each cage, and cared at constant temperature (18 to 26° C.) and humidity (40 to 70%). The mice were provided with free access to radiation-sterilized dry granular feed and sterile drinking water in individual ventilated cages.
(§2) The JIMT-1 breast cancer cells were cultured under 5% CO2 and 37° C. conditions with DMEM containing 10% FBS, 100 U/mL penicillin, and 100 μg/mL streptomycin, and a subculture was performed by a routine method twice per week by trypsin-EDTA treatment. Cells growing in the exponential growth phase were harvested and counted for tumor inoculation. The MDA-MB-468 breast cancer cells were cultured under 5% CO2 and 37° C. conditions with RPMI containing 10% FBS, 100 U/mL penicillin, and 100 μg/mL streptomycin, and a subculture was performed by a routine method twice per week by trypsin-EDTA treatment. Cells growing in the exponential growth phase were harvested and counted for tumor inoculation.
(§3) JIMT-1 tumor cells (1×10^7) or MDA-MB-468 cells (1×10^7) in 0.2 mL DPBS with Matrigel were inoculated subcutaneously into the right anterior flank of each mouse. The animals were randomly grouped (Tables 5-7) when the mean tumor volume reached about 215 mm^3, and then treatment for the drug efficacy study was initiated.
(§4) The main endpoint was determined as the time point when it could be confirmed if tumor growth could de delayed or if the mouse could be treated. The two-dimensional size of the tumor was measured twice a week by using a caliper, and the volume was recorded in the unit of mm^3 by using the formula (V=0.5a×b^2, where a and b are the major and minor diameters of the tumor, respectively).
(§5) The tumor growth inhibition (TGI) was calculated for each group.
(§6) TGI (%)=[1−(Ti/T0)/(Vi/V0)]×100
(§7) (Ti is the mean tumor volume of the treatment group on a given day; T0 is the mean tumor volume of the treatment group on the first treatment day; Vi is the mean tumor volume of the vehicle control group on the same day as Ti; and V0 is the mean tumor volume of the vehicle control group on first treatment day.)
(§8) Animals with a weight loss of 15% or greater or a tumor volume equal to or greater than 3000 mm^3 were euthanized at a humane endpoint.
(§9) The results are expressed as mean and standard error (mean±SEM). The data was analyzed by performing a two-way RM ANOVA Dunnett's multiple comparison test by using the Graphpad Prism 6.0 software program, and p<0.05 was considered statistically significant.

[2] = Body weight of JIMT-1 or MDA-MB-468 tumor model mice; format: in vivo; details: 10 mg/kg I.V.; for Change of body weight: Day 0 to Day 21
Procedure: During routine monitoring, the animals were checked daily for normal behavior such as mobility, food and water consumption (observation only), weight change (weighed twice a week), eye/hair matting, tumor growth, and treatment effects. Mortality and observed clinical signs were recorded based on the number of animals in each subset.
The body weight of the mice of the JIMT-1 or MDA-MB-468 tumor model was regularly monitored.

[3] = tested on: MDA-MB-468 cells; test: In vivo drug efficacy, MDA-MB-468 xenograft model (cetuximab / Example 8); set-up: species or system mice; details: MDA-MB-468 model, 10 mg/kg I.V.
Procedure: as §1, §2, §3, §4, §5, §6, §7, §8, §9

Trastuzumab: Her2 target monoclonal antibody; control
Tumor volume ([1]; Day 0): 216.90 ± 5.63 mm^3 | Tumor volume ([1]; Day 4): 394.05 ± 24.62 mm^3 | Tumor volume ([1]; Day 7): 628.63 ± 91.39 mm^3 | Tumor volume ([1]; Day 11): 828.63 ± 152.73 mm^3 | Tumor volume ([1]; Day 14): 857.34 ± 174.86 mm^3 | Tumor volume ([1]; Day 18): 775.02 ± 141.84 mm^3 | TGI ([1]; Day 21): 59.41% | Tumor volume ([1]; Day 21, 10 mg/kg): 671.06±92.85 mm^3 | Body weight ([2]; JIMT-1 model, Day 0): 17.49 ± 0.67 g | Change of body weight ([2]; JIMT-1 model): +1.56 g | Body weight ([2]; JIMT-1 model, Day 21): 19.05 ± 0.84 g

Cetuximab: EGFR target monoclonal antibody; control
Body weight ([2]; MDA-MB-468 model, Day 0): 16.52 ± 0.35 g | Change of body weight ([2]; MDA-MB-468 model): +0.9 g | Body weight ([2]; MDA-MB-468 model, Day 21): 17.42 ± 0.61 g | Tumor volume ([3]; Day 0): 215.45 ± 17.45 mm^3 | Tumor volume ([3]; Day 4): 237.94 ± 11.05 mm^3 | Tumor volume ([3]; Day 7): 293.12 ± 23.39 mm^3 | Tumor volume ([3]; Day 11): 318.07 ± 23.97 mm^3 | Tumor volume ([3]; Day 14): 327.41 ± 30.50 mm^3 | Tumor volume ([3]; Day 18): 340.95 ± 34.19 mm^3 | TGI ([3]; Day 21): 15.92% | Tumor volume ([3]; Day 21, 10 mg/kg): 363.07 ± 44.38 mm^3 | Tumor volume ([3]; Day 21, listed as cetuximab, 10 mg/kg): 363.07±44.38 mm^3
